Assay [1] addresses T1, Telomere zinc finger-associated protein (Homo sapiens) (UniProt P10074).
T1 sequence (whole entry): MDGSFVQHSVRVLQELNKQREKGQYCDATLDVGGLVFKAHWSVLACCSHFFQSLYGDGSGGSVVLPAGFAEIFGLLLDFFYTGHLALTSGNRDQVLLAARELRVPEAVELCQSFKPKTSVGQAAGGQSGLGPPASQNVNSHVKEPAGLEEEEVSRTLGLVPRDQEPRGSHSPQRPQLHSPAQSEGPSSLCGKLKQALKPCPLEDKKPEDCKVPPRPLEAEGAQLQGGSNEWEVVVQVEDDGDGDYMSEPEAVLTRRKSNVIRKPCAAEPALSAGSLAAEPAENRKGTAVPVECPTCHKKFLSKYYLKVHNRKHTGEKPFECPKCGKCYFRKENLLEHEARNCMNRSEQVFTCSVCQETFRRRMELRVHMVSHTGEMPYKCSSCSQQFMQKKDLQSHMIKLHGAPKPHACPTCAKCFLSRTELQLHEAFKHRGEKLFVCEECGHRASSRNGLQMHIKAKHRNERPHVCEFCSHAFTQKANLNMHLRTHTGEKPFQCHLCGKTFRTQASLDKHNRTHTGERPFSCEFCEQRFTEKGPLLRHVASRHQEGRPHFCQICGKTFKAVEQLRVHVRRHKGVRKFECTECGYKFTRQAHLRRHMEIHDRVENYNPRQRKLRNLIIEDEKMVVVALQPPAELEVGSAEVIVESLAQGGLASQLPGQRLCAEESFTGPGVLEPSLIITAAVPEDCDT
To be noted: OCI-Ly1.

By UniProt entry, the sequences of proteins in these tests, tags left out. Where a name states a change or a piece, a line headed by the entry shows the natural chain unless it says otherwise.
UniProt O95365: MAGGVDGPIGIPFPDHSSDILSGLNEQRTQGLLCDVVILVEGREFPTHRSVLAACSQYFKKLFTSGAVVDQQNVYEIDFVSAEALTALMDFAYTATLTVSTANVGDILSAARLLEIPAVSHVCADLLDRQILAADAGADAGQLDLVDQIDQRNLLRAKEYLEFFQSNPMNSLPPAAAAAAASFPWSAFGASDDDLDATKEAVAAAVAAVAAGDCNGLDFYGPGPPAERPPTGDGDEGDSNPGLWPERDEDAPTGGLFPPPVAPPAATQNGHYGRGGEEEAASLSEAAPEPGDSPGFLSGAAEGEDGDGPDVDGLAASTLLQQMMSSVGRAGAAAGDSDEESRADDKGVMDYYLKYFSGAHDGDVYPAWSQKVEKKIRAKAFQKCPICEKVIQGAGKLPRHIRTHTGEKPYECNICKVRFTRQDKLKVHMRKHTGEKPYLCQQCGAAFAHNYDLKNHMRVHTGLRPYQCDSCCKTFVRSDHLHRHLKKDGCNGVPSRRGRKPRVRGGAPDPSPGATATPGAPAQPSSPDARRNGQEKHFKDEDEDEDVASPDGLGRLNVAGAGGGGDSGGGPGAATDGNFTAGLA

Assay [2] concerns the target T2, Zinc finger and BTB domain-containing protein 2 (Homo sapiens) (UniProt Q8N680).
T2 sequence (whole entry): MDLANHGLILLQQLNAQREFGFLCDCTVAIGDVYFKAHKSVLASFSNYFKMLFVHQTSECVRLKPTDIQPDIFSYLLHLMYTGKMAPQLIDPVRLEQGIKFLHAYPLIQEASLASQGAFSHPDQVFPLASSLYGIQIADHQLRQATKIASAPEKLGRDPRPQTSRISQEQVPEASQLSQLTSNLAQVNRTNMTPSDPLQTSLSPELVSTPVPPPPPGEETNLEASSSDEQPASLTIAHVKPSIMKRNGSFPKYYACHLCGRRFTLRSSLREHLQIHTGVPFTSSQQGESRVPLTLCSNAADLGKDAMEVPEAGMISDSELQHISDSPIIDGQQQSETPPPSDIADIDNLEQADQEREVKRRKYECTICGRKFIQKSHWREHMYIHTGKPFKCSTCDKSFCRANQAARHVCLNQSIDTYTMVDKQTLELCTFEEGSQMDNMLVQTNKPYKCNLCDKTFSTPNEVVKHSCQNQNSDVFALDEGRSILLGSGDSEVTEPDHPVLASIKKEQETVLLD
To be noted: OCI-Ly1.

In assay [3] the target is T3, Zinc finger and BTB domain-containing protein 9 (Homo sapiens) (UniProt Q96C00).
T3 sequence (whole entry): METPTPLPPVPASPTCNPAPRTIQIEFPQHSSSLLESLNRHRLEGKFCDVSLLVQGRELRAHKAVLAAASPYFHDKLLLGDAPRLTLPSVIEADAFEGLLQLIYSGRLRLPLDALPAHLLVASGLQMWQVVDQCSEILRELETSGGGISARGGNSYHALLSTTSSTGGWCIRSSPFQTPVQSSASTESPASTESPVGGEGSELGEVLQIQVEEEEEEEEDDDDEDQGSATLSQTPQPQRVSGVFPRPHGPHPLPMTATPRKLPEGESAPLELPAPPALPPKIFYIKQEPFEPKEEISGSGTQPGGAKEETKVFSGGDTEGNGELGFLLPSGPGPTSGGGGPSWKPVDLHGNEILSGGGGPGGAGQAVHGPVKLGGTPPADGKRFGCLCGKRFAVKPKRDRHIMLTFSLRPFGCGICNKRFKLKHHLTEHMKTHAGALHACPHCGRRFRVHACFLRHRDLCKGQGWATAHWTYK
To be noted: OCI-Ly1.

The target of assay [4] is T4, Protein archease (Homo sapiens) (UniProt Q8IWT0).
T4 sequence (whole entry): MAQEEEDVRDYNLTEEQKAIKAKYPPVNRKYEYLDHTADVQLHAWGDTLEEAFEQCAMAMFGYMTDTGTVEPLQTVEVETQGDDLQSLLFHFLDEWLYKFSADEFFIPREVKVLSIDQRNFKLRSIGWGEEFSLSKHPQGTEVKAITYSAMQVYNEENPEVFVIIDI
To be noted: SUD4.

In assay [5] the target is Zinc finger and BTB domain-containing protein 7A (Homo sapiens) (UniProt O95365). Conditions: SUD4.
For another assay, the target named is T5, Myoneurin (Homo sapiens) (UniProt Q9NPC7).
T5 sequence (whole entry): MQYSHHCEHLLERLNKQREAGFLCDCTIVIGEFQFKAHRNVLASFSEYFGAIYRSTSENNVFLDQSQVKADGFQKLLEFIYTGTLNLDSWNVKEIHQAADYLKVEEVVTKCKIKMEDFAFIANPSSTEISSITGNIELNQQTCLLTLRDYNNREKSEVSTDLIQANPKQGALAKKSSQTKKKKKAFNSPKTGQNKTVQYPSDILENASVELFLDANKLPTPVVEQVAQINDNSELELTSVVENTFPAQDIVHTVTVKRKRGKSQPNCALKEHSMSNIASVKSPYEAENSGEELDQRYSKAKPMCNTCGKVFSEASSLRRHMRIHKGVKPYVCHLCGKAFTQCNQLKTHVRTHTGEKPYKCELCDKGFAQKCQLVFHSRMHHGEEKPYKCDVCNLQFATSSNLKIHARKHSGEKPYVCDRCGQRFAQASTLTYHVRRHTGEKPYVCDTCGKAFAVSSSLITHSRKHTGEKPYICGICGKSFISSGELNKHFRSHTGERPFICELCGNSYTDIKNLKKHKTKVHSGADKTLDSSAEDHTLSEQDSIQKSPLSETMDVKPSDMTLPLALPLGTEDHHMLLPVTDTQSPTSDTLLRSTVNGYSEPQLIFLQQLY
To be noted: SUD4.

SMILES strings stand for the structures.

Consider `C[C@@H]1CN(c2ncc(Cl)c(Nc3ccc4c(c3)n(CCC(C)(C)O)c(=O)n4C)n2)C[C@H](C)C1(F)F`, for which the Normalized abundances for DMSO was determined as 556 in assay [1]; 15 in assay [2]; 40.5 in assay [3]; 1430 in assay [4]; 915 in assay [5]; 122 on Myoneurin (Homo sapiens). Further, the Normalized abundances for compound worked out at 564 in assay [1]; 17.7 in assay [2]; 39.8 in assay [3]; 1540 in assay [4]; 937 in assay [5]; 111 at Myoneurin (Homo sapiens).

The values are drawn from ChEMBL document CHEMBL5058646 (2022).
